From patent publication US10350264B2, “Compositions and methods for modulating NCOA4-mediated autophagic targeting of ferritin” (Dana-Farber Cancer Institute, Inc., priority 2014, dated 2019)

Target: T1, NCOA4(aa 383-522)-GST (Homo sapiens, UniProt Q13772)
T1 construct: NCOA4(aa 383-522)-GST or GST alone was incubated with; made in house; host or cells: E. coli BL21 (DE3)
T1 sequence (Q13772 383-522): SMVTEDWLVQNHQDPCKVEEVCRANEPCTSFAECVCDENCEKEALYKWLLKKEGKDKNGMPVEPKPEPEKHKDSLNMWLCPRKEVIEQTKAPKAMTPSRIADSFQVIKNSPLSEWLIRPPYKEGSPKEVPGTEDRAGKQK
Assay: GST pull-down assay of WT and point mutant FTH1 using NCOA4(aa 383-522)-GST
Type: binding
Conditions: 40 μg FTH1, InstantBlue stain; FIGS. 23A-D
Method: Wild-type (WT) and point mutants of FTH1 were produced recombinantly in E. coli and purified by chromatographic techniques including size exclusion chromatography to confirm oligomeric ferritin cage assembly (elution at 440 kDa size on Superose 6 column). In a GST pull-down assay, NCOA4(aa 383-522)-GST or GST alone was incubated with 10 μl of a 50% (v/v) slurry of glutathione Sepharose 4B beads (GE Healthcare Lifesciences, 17-0756-01) for 30 minutes at 4° C. Beads were washed thoroughly with 150 mM NaCl, 20 mM Tris (pH 7.4), 2 mM dithiothreitol (DTT), 0.5% (w/v) Nonidet P-40, leaving 50-100 μg of GST-fusion protein bound to the beads. Beads were then mixed with 40 μg of recombinant human WT or point mutant FTH1 produced in Rosetta E. coli (EMD Millipore, 70953-3). The assay mix was incubated for 30 minutes at 4° C., and beads were washed three times with 1 ml wash buffer. Proteins were eluted with SDS sample buffer and analyzed by 4-20% gradient SDS-PAGE. InstantBlue Stain (Expedeon: catalog #ISB1L) was used to visualize GST-NCOA4 bands and FTH1 bands. […] The interaction would very likely also involve the loop structure (G78-K88) adjacent to the R23 site of FTH1.

- binding of FTH1 (WT or point mutant) to NCOA4(383-522)-GST: strongly
Substance: FTH1 WT: recombinant human wild-type ferritin heavy chain (SEQ ID NO: 6), produced in E. coli
